## Apparent affinities of Ab-14 variants for a coronavirus HR2 peptide

Data: MIT Lincoln Laboratory AlphaSeq set, Li et al. 2023, doi:10.1038/s41467-023-39022-2, as distributed in FLAb.

Antigen: PDVDLGDISGINAS, a 14-residue peptide of the SARS-CoV-2 spike HR2 region.

Parent scFv Ab-14: VH joined to VL by a 15-residue (Gly4Ser)3 linker. Changes lie in the heavy chain CDRs alone.
VH: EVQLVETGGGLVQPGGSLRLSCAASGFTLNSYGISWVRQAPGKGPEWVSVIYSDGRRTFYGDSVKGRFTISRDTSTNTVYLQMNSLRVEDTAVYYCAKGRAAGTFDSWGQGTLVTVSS
VL: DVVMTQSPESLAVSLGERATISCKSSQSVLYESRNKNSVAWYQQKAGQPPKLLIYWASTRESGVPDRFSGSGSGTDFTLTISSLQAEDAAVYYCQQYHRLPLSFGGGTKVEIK

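The starting antibody came from a phage panning campaign against this peptide. The variants were designed computationally from a first round of random CDR variants and then made and measured. Group labels follow the data file (Ctrl: baseline library sampled from a position-specific scoring matrix, with some repeated check sequences; Rand: our label for a block that the file lists under HC and that is probably the random mutants of the ten best first-round binders; En: ensemble of fine-tuned language models; GP: Gaussian process model; GPLM: also part of the Gaussian process libraries; HC: hill climbing; Gen: genetic algorithm; Gibbs: Gibbs sampling; a sequence that several methods proposed may carry one label only). In AlphaSeq, yeast of one mating type display the scFv and yeast of the other type display the target. Mating (16 h, 30 °C) was followed by selection of diploids and sequencing of their barcodes. Read counts were normalised to the haploid input and turned into Kd by a linear fit to BCL2-family pairs of known affinity, for each replicate. The assay was run in six technical replicates.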

Variants are written as CDR1, CDR2 and CDR3 of the heavy chain (limits as in the source). Parent: GFTLNSYGIS, VIYSDGRRTFYGDSVK, GRAAGTFDS.
Kd is apparent (estimated from mating counts) and averaged on the log scale over replicates with a signal. Smaller is tighter.
Where no diploid with the target was found in any replicate, the entry reads "nd": below detection, most likely a poor binder, though not proof of it.
Of ten entries with the parent sequence, four were seen in most replicates (averages 2.2 nM to 240 nM), three in one and three in none, so single entries are noisy.
The authors' rule: three or more of the six replicates give a measured affinity, fewer mean a poor binder.
Values of this round are not directly comparable with the first-round values of the same sequences.
Some sequences occur more than once in the pool; their replicates are pooled.
Nonspecific signal, from three strains lacking the peptide, appeared in 1% of pairings of all heavy chain designs, centred on 120 nM (5% of these signals below 7.0 nM); values are not corrected for it.

CDR-H1 | CDR-H2 | CDR-H3 | group | Kd | seen in
GFTLNEYGIS | VIYSDGRRTMYTDSVK | GRCAGTFDS | GP_HC | nd | 0/6
GFDLNEYGIS | VIYADGMRTAYADNVK | GQVAGTFDT | En_Gen | 1.8 µM | 2/6
LFELNEYGIS | VIYSDGRRTFYRDSVK | GRTAGTFDS | GP_HC | 59 nM | 4/6
GFDLDEYGIS | VIYADGMRTAYANDVK | GEVAGTFDL | En_Gen | 330 pM | 6/6
GFDLNEYGIS | VIYADGSRTFYSDSVK | GQNAGTFDA | En_HC | 13 nM | 6/6
GFTLNSYGIS | VIYADGRRTFYADSVK | GRAAGTFDS | Ctrl | nd | 0/6
GFTLNSYGIS | VIYSDGRRTFYGDSVK | GNEAGTFDT | GPLM_Gen | 58 nM | 6/6
GFDLNEYGIS | VIYADGRRTFYIDSVK | GQTAGTFDS | En_HC | 540 pM | 6/6
GFSLNTYGIS | VIYSDGRRTFYGDSVK | GKVAGTFDS | GP_Gibbs | 4.8 nM | 6/6
GFTLNSYGIS | VIYSDGRRTAYIDSVK | GRLAGTFDS | Ctrl | 7.4 nM | 6/6
GFDLNEYGIS | VIYADGRRTFYADSVK | GEAGGTFDK | En_HC | nd | 0/6
GFTLKEYGIS | VIYSDGRRTFYGDSVN | GRAAFTKDS | Ctrl | nd | 0/6
GFDLDEYGIS | VIYADGRRTFYQDSVK | GQAAGTFDT | En_HC | 120 pM | 6/6
GFDLEEYGIS | VIYADGRRTFYSDSVK | GEAAGTFDA | En_HC | 390 pM | 6/6
GFDLNEYGIS | VIYADGRRTFYQDSVK | GEIAGTFDQ | En_HC | 1.9 nM | 5/6
GFDLNEYGIS | VIYADGRRTSYQDSVK | GEAAGTFDV | En_HC | 660 pM | 6/6
GFDLEEYGIS | VIYADGMRQMYAQNVK | GYNQSDMTV | En_Gibbs | nd | 0/6
GFTLNQYGIS | VIYSDGIRTFYSDSVK | GRAAPFFDS | Rand | 130 pM | 4/6
GFTLNSYGIS | VIYSDGKRTFYIDSVK | GNVAGTFDS | GP_Gibbs | 7.9 nM | 6/6
GFTLDSYGIS | VIYSDGRRTFYGDSVK | GQAAGTFDS | Ctrl+GP_HC | 37 nM | 8/12
GFDLNEYGIS | VIYADGVRTAYTDSVK | GEVAGTFDV | En_Gen | 630 pM | 6/6
GFDLNSYGIS | VIYSDGRRTFYVDSVK | GHAAGTFDS | GPLM_Gibbs | 730 pM | 6/6
GFTLNDHGIS | VIYSDGRRTFYGDSVK | GRAAGTFDS | Ctrl | 2.3 nM | 6/6
GFTLNEYGIS | VIYSDGRRTFYGDSVK | GRAADTFDK | GP_HC | nd | 0/6
GFELNQYGIS | VIYSDGRRTFYSDSVK | GEAAGTFDK | GP_HC | 1.9 nM | 6/6
GFELNDYGIS | VIYSDGRRTFYGDSVK | GRHAGTFDS | GP_Gibbs | 17 nM | 4/6
GFDLKSYGIS | VIYSDGRRTFYGDNVK | GRTAGTFDS | GP_Gibbs | 180 pM | 6/6
GFTLNSYGIS | VIYSDGRRTFYSDSVK | GEAAGTFDS | Ctrl | 2.3 nM | 6/6
GFDLNEYGIS | VIYADGRRTAYIDSVK | GQAAGTFDS | En_HC | 260 pM | 6/6
GFDLNEYGIS | VIYADGVRTAYIDSVK | GEIAGTFDS | En_HC | 480 pM | 6/6
GFNLDEYGIS | VIYADGRRTFYQDSVK | GNVAGTFDS | En_HC | 430 pM | 6/6
GFDLDEYGIS | VIYADGMRTSYADSVK | GETAGTFDV | En_Gen | 400 pM | 6/6
GFDLNEYGIS | VIYADGMRTAYADKVK | GNQAGTFDV | En_Gen | 230 pM | 6/6
GFTLNSYGIS | VIYSDGKRTFYSDSVK | GEAAGTFDF | GP_Gibbs | 14 nM | 6/6
GFDLNSYGIS | VIYSDGRRTFYQDSVK | GSAAGTFDS | GP_Gen | 370 pM | 6/6
GFTLNDYGIS | VIYSDGRRTFYGDSVK | GRQQLTFIS | Rand | nd | 0/6
GFVLNEYGIS | VIYADGRRTFYGDSVK | GKAAGTFDS | GP_HC | 810 pM | 6/6
GFTNNSYGIS | VIYSDGRRTFYGDSVK | RRAAGTFDS | Ctrl | 160 nM | 2/6
GFDIEEYGIS | VIYADGRRTSYQNKVK | GRSGGIFNV | En_Gibbs | 7.4 nM | 6/6
GFDLNEYGIS | VIYADGMRTFYADSVK | GTNAGTFDI | En_Gen | 1.5 nM | 6/6
GLTLNSYGIS | VIYSDGRRTFYSDSVK | GRAAVTFDV | Ctrl | nd | 0/6
GFDLNEYGIS | VIYADGRRTFYTDSVK | GNAAGTFDV | En_HC | 1.1 nM | 6/6
GFTLNDYGIS | VIYSDGRRTFYMDSVK | GRTAGTFDS | GPLM_Gen | 1.4 nM | 6/6
GFGIDEYGIS | VIYADGQRKMYQDNVK | GNVGSLGSD | En_Gibbs | 1.3 nM | 6/6
GFNINEYGIS | VIYADGQRLSYDDKVK | GDITGTFND | En_Gibbs | nd | 0/6
GFTLNSYGIS | VIYADGRRTFYGDSVK | GQAAGTFDS | GPLM_Gen | 2.2 nM | 2/6
GFTLNDYGIS | VIYSDGRRTQYIDSVK | GRAAGTFDS | Ctrl+En_HC | 20 nM | 11/12
GFDLNSYGIS | VIYSDGKRTFYGDSVK | GHAAGTFDA | GP_Gibbs | 1.9 nM | 6/6
GHTLNSYGIS | VIYSDGRRTFYGDSVK | GRAIGTFDS | Ctrl | 300 nM | 1/6
GFSLNSYGIS | VIYSDGRRTFYVDSVK | GNAAGTFDL | GP_Gibbs | 2.4 nM | 6/6
GFTLNSYGIS | VIYADGRRTFYGDSVK | GRAAGTNES | En_HC | 370 nM | 1/6
GFTLNSYGIS | VIYSDGLRTFYGDSVK | GSAAGTFVL | Ctrl | nd | 0/6
GNTLNEYGIS | VIYADGIRKQYSDNVK | GMNADTFDQ | En_Gibbs | nd | 0/6
GMSLDEYGIS | VIYADGVRCAYANTVK | GELAGFFML | En_Gibbs | nd | 0/6
GFDLEDYGIS | VIYADGRRTFYADSVK | GEIAGTFDS | En_HC | 1.4 nM | 6/6
GFNLDEYGIS | VIYADGRRTFYADSVK | GSHAGTFDM | En_HC | 170 pM | 6/6
GFTLDEYGIS | VIYADGRRTFYADNVK | GNVAGTFDQ | En_HC | 360 pM | 6/6
GFKLDEYGIS | VIYADGSRTEYVQSVK | GDTTVSKFV | En_Gibbs | 40 nM | 1/6
DFSLNEYGIS | VIYSDGRRTFYGDSVK | GRTAGTFDS | GPLM_Gen | 2.3 nM | 6/6
GFTLNEYGIS | VIYSDGRRTEYGDSVK | GRAAGTFIS | GP_HC | nd | 0/6
GFDLNEYGIS | VIYADGMRTAYADKVK | GNQAGTFDI | En_Gen | 330 pM | 6/6
GFTLNDYGIS | VIYSDGRRTQYIDSVK | GTAAGTFDS | Rand | 43 nM | 6/6
GFKLNSYGIS | VIYSDGRRTFYADSVK | GQTAGTFDS | GPLM_Gen | 11 nM | 4/6
GFDLNEYGIS | VIYADGKRTAYTDSVK | GNQAGTFDI | En_Gen | 690 pM | 6/6
GFELNSYGIS | VIYSDGWRTFYGDSVK | GRAALTFDS | Ctrl | nd | 0/6
GQDINEYGIS | VIYADGMRKAYVQNVK | GENTFSFEI | En_Gibbs | nd | 0/6
GFQLDEYGIS | VIYADGRRTFYQDSVK | GEVAGTFDM | En_HC | 1.4 nM | 6/6
GFTLNSYGIS | VIYSDGQRTFYIDSVK | GNAAGTFDS | GP_Gen | 7.4 nM | 6/6
GFDLNEYGIS | VIYADGMRVSATNTVK | GGNSMISAT | En_Gibbs | nd | 0/6
GFDIEDYGIS | VIYADGVRAMYKENFK | GQIAGTFLI | En_Gibbs | 24 nM | 1/6
GFDIDEYGIS | VIYADGKRSGYKNTVK | GNFNISLSI | En_Gibbs | nd | 0/6
GFSLNEYGIS | VIYSDGRRTFYGDSVK | GRDAGTFDS | GPLM_Gen | 3.1 nM | 6/6
GFTLNSYGIS | VIYSDGRRTFYSDSVK | GRSAGTFDS | GPLM_Gibbs | 39 nM | 6/6

Again, the first 7 entries without any signal:

CDR-H1,CDR-H2,CDR-H3,group,Kd,seen in
GFTLNEYGIS,VIYSDGRRTMYTDSVK,GRCAGTFDS,GP_HC,nd,0/6
GFTLNSYGIS,VIYADGRRTFYADSVK,GRAAGTFDS,Ctrl,nd,0/6
GFDLNEYGIS,VIYADGRRTFYADSVK,GEAGGTFDK,En_HC,nd,0/6
GFTLKEYGIS,VIYSDGRRTFYGDSVN,GRAAFTKDS,Ctrl,nd,0/6
GFDLEEYGIS,VIYADGMRQMYAQNVK,GYNQSDMTV,En_Gibbs,nd,0/6
GFTLNEYGIS,VIYSDGRRTFYGDSVK,GRAADTFDK,GP_HC,nd,0/6
GFTLNDYGIS,VIYSDGRRTFYGDSVK,GRQQLTFIS,Rand,nd,0/6